The record followed here is patent US20230416786A1, “USE OF AMINOQUINOLINE COMPOUNDS FOR HIGHER GENE INTEGRATION” (CELLECTIS SA, priority 2020, published 2023).

Each structure is given as a SMILES string.

This assay deals with HSCs. The experiment in a line: Targeted integration of HLA-E repair template at the B2M locus in HSCs (B2M TALEN + AAV-HLA-E, flow cytometry of HLA-E positive cells). Type of assay: cell-based, human. The conditions noted are these: Example 5, FIG. 5, compound 0.02 mM, without any compound 33.3%. The source says:
The targeted sequences are […]gctcgcgctactc[…]
For HSCs, AAV-HLA-E particles was thawed on ice and aliquot to transduce each of the HSC samples at 10^4 viral genome per cell (vg/cell).
For orientation: Flow cytometry measures light scatter and fluorescence of single cells or particles in a stream.

Take `CCN(CC)CCCC(C)Nc1ccnc2cc(Cl)ccc12` (stereo not shown) [chloroquine, N4-(7-chloroquinolin-4-yl)-N1,N1-diethylpentane-1,4-diamine diphosphate]: the “percentage of HLA-E positive cells” value worked out at 44.4%.
